Molecular target: NAMPT (Homo sapiens (Human), UniProt P43490)
Details: read-out: TR-FRET Binding IC50 (μM) probe 1

The chains behind the UniProt entries cited, without tags or fusion partners. Where a name states a change or a piece, a line headed by the entry shows the natural chain unless it says otherwise.
UniProt P43490: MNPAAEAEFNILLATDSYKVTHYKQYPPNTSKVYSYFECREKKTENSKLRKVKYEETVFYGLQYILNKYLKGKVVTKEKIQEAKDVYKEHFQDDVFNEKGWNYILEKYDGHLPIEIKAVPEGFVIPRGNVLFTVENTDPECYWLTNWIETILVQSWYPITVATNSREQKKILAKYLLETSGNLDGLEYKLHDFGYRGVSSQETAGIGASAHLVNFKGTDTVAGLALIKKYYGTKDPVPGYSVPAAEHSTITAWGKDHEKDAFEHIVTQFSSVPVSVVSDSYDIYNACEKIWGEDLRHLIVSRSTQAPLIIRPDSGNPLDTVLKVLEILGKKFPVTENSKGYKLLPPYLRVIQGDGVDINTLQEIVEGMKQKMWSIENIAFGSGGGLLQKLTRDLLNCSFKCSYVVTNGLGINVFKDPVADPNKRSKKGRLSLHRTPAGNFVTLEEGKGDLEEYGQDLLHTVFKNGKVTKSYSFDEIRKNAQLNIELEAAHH

O=C(Nc1ccc(N2CCN(C(=O)c3ccc(Cl)cc3)CC2)cc1)N1Cc2ccccc2C1 [Example 517, N-{4-[4-(4-chlorobenzoyl)piperazin-1-yl]phenyl}-1,3-dihydro-2H-isoindole-2-carboxamide]
IC50: 0.0758 µM

N#Cc1cccc(C(=O)N2CCN(c3ccc(NC(=O)N4Cc5ccccc5C4)cc3)CC2)c1 [Example 518, N-{4-[4-(3-cyanobenzoyl)piperazin-1-yl]phenyl}-1,3-dihydro-2H-isoindole-2-carboxamide]
IC50: 0.266 µM

N#Cc1ccc(C(=O)N2CCN(c3ccc(NC(=O)N4Cc5ccccc5C4)cc3)CC2)cc1 [Example 519, N-{4-[4-(4-cyanobenzoyl)piperazin-1-yl]phenyl}-1,3-dihydro-2H-isoindole-2-carboxamide]
IC50: 0.0968 µM

CN(C)c1cccc(C(=O)N2CCN(c3ccc(NC(=O)N4Cc5ccccc5C4)cc3)CC2)c1 [Example 520, N-(4-{4-[3-(dimethylamino)benzoyl]piperazin-1-yl}phenyl)-1,3-dihydro-2H-isoindole-2-carboxamide]
IC50: 0.0488 µM

COc1cc(OC)cc(C(=O)N2CCN(c3ccc(NC(=O)N4Cc5ccccc5C4)cc3)CC2)c1 [Example 523, N-{4-[4-(3,5-dimethoxybenzoyl)piperazin-1-yl]phenyl}-1,3-dihydro-2H-isoindole-2-carboxamide]
IC50: 0.187 µM

COc1ccc(CC(=O)N2CCN(c3ccc(NC(=O)N4Cc5ccccc5C4)cc3)CC2)cc1OC [Example 524, N-(4-{4-[(3,4-dimethoxyphenyl)acetyl]piperazin-1-yl}phenyl)-1,3-dihydro-2H-isoindole-2-carboxamide]
IC50: 0.115 µM

O=C(Nc1ccc(N2CCN(C(=O)c3ccccn3)CC2)cc1)N1Cc2ccccc2C1 [Example 529, N-{4-[4-(pyridin-2-ylcarbonyl)piperazin-1-yl]phenyl}-1,3-dihydro-2H-isoindole-2-carboxamide]
IC50: 0.103 µM

O=C(Nc1ccc(N2CCN(C(=O)c3cccnc3)CC2)cc1)N1Cc2ccccc2C1 [Example 530, N-{4-[4-(pyridin-3-ylcarbonyl)piperazin-1-yl]phenyl}-1,3-dihydro-2H-isoindole-2-carboxamide]
IC50: 0.124 µM

O=C(Nc1ccc(N2CCN(C(=O)c3ccncc3)CC2)cc1)N1Cc2ccccc2C1 [Example 531, N-[4-(4-isonicotinoylpiperazin-1-yl)phenyl]-1,3-dihydro-2H-isoindole-2-carboxamide]
IC50: 0.159 µM

O=C(Nc1ccc(N2CCN(C(=O)c3cccnn3)CC2)cc1)N1Cc2ccccc2C1 [Example 532, N-{4-[4-(pyridazin-3-ylcarbonyl)piperazin-1-yl]phenyl}-1,3-dihydro-2H-isoindole-2-carboxamide]
IC50: 0.488 µM

O=C(Nc1ccc(N2CCN(C(=O)c3cnccn3)CC2)cc1)N1Cc2ccccc2C1 [Example 533, N-{4-[4-(pyrazin-2-ylcarbonyl)piperazin-1-yl]phenyl}-1,3-dihydro-2H-isoindole-2-carboxamide]
IC50: 0.294 µM

O=C(Nc1ccc(N2CCN(C(=O)c3ccncn3)CC2)cc1)N1Cc2ccccc2C1 [Example 534, N-{4-[4-(pyrimidin-4-ylcarbonyl)piperazin-1-yl]phenyl}-1,3-dihydro-2H-isoindole-2-carboxamide]
IC50: 0.14 µM

CN(C)CCC(=O)N1CCN(c2ccc(NC(=O)N3Cc4ccccc4C3)cc2)CC1 [Example 535, N-{4-[4-(N,N-dimethyl-beta-alanyl)piperazin-1-yl]phenyl}-1,3-dihydro-2H-isoindole-2-carboxamide]
IC50: 0.743 µM

CC(=O)N1CCN(c2ccc(NC(=O)N3Cc4ccccc4C3)cc2)CC1 [Example 536, N-[4-(4-acetylpiperazin-1-yl)phenyl]-1,3-dihydro-2H-isoindole-2-carboxamide]
IC50: 0.187 µM

O=C(Nc1ccc(N2CCN(C(=O)c3cscn3)CC2)cc1)N1Cc2ccccc2C1 [Example 540, N-{4-[4-(1,3-thiazol-4-ylcarbonyl)piperazin-1-yl]phenyl}-1,3-dihydro-2H-isoindole-2-carboxamide]
IC50: 0.137 µM

O=C(CN1CCOCC1)N1CCN(c2ccc(NC(=O)N3Cc4ccccc4C3)cc2)CC1 [Example 541, N-{4-[4-(morpholin-4-ylacetyl)piperazin-1-yl]phenyl}-1,3-dihydro-2H-isoindole-2-carboxamide]
IC50: 0.225 µM

CCCNC(=O)c1ccc(NC(=O)N2Cc3ccc(C(=O)NCCN(C)C)cc3C2)cc1 [Example 559, N^5-[2-(dimethylamino)ethyl]-N^2-[4-(propylcarbamoyl)phenyl]-1,3-dihydro-2H-isoindole-2,5-dicarboxamide]
IC50: 1.98 µM

CCCNC(=O)c1ccc(NC(=O)N2Cc3ccc(C(=O)N4CCOCC4)cc3C2)cc1 [Example 560, 5-(morpholin-4-ylcarbonyl)-N-[4-(propylcarbamoyl)phenyl]-1,3-dihydro-2H-isoindole-2-carboxamide]
IC50: 5.02 µM

O=C(Nc1ccc(/C=N/OCc2ccccc2)cc1)N1Cc2ccccc2C1 [Example 566, N-(4-{(E)-[(benzyloxy)imino]methyl}phenyl)-1,3-dihydro-2H-isoindole-2-carboxamide]
IC50: 0.193 µM

NC1CCN(c2ccc(NC(=O)N3Cc4ccccc4C3)cc2)C1 (centres unmarked) [Example 573, N-[4-(3-aminopyrrolidin-1-yl)phenyl]-1,3-dihydro-2H-isoindole-2-carboxamide]
IC50: 1.26 µM
